Test results as given in PubChem BioAssay AID1974 (The Scripps Research Institute Molecular Screening Center, 2009).
The entries are a selection whose mix differs from that of the whole data set. Activity calls are given as the source filed them.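 How the source made its calls: active means inhibition above the campaign mean inhibition plus 3 SD (cut at about 35% in these data); inactive means the rest.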

Protein sequences, listed by entry. Tags and fused reporters are not part of them. Lines headed by an entry give the natural chain unless they say otherwise; changes in a name come on top.
UniProt P78417: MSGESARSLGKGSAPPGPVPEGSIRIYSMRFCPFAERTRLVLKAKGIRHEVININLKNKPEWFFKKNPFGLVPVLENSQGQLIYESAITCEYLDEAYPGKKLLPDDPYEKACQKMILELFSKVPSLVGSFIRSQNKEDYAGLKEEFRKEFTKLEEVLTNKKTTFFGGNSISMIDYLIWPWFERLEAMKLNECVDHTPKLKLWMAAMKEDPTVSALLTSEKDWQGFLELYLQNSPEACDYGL

Each molecule was assayed against Glutathione S-transferase omega-1 (Homo sapiens) (UniProt P78417) (assay: inhibitors of recombinant GSTO1, primary screen, counter-screen for RBBP9 inhibitor project, biochemical, fluorescence polarization (AID 1974;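 further: 0% = GSTO1-1 with DMSO and 100% = wells lacking GSTO1-1 enzyme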)). Details: recombinant GSTO1, activity-based probe fluorescence polarization; at 5.96 µM; stronger effect = higher value.

Row | SMILES | inhibition
1 | O=P(Nc1nc2ccccc2s1)(c1ccccc1)c1ccccc1 | inactive: -12.1%
2 | O=P(Nc1nccs1)(c1ccccc1)c1ccccc1 | inactive: 0.48%
3 | CC(C)C(=O)NC(Sc1ccccc1)C(Cl)(Cl)Cl (stereo unspecified) | inactive: 4.83%
4 | c1nnnn1CCn1cnnn1 | inactive: 9.69%
5 | CCN(/C(=N/P(=O)(N1CCOCC1)N1CCOCC1)N1CCOCC1)c1ccc(OC)cc1 | inactive: 3.49%
6 | C[N+]1=C2C=CC=CC=C2SC12C([N+](=O)[O-])=CC([N+](=O)[O-])=C[C-]2[N+](=O)[O-] (stereo unspecified) | active: 81%
7 | Nc1ccc([As](=O)(O)c2ccc(N)cc2)cc1 | inactive: 3.6%
8 | CC1CCN(C(=O)Oc2c(Cl)cc(Cl)c3cccnc23)CC1 | inactive: -4.71%
9 | CN(C)C(=O)OCCc1n(C)cc[n+]1C | inactive: 3.26%
10 | CC(C)=N/N=C(\N)N[N+](=O)[O-] | inactive: -2.72%
11 | COc1ccc(C2=NCC(CBr)S2)cc1 (stereo unspecified) | inactive: -6.97%
12 | O=[N+]([O-])c1cc([N+](=O)[O-])c(CCNc2ccccc2)c([N+](=O)[O-])c1 | active: 43.3%
13 | CCc1nc2c(n1)c1c(non1O)c1c2no[n+]1[O-] | inactive: 31.3%
14 | Cc1ccc(NP(=O)(Oc2ccccc2)Oc2ccccc2)nc1 | inactive: -3.63%
15 | CC(=O)N1C2C3N(C(C)=O)C1C1N(C(C)=O)C(C(N1C(C)=O)N3C(C)=O)N2C(C)=O | inactive: 6.96%
16 | O=[N+]([O-])c1cccc2n[nH]nc12 | inactive: -1.9%
17 | O=[N+]([O-])c1ncn(CCn2ncnc2[N+](=O)[O-])n1 | inactive: 13.6%
18 | CC(C)(C)C(=O)NC(Sc1ccncn1)C(Cl)(Cl)Cl (stereo unspecified) | inactive: 5.77%
19 | O=[N+]([O-])c1cccc(NC2=NCC(CBr)S2)c1 (stereo unspecified) | inactive: 0.72%
20 | O=C(Nc1cc([As](=O)(O)O)ccc1O)c1ccccc1 | inactive: 3.77%
21 | O=[N+]([O-])c1cc([N+](=O)[O-])c(CCN2CCOCC2)c([N+](=O)[O-])c1 | active: 66%

Row | SMILES | inhibition
22 | CCN(N=Nc1nonc1N)c1nonc1N | inactive: -2.56%
23 | O=P(Nc1nc2ccc(Cl)cc2s1)(c1ccccc1)c1ccccc1 | inactive: -4.21%
24 | O=C(O)c1ccccc1[As](=O)(O)O | inactive: -6.07%
25 | CC(=O)Nc1ccc([As](=O)(O)O)cc1 | inactive: 2.58%
26 | CN(C(=O)Cc1ccc(Cl)c(Cl)c1)[C@H]1CCCC[C@@H]1N1CCCC1 | inactive: 23.9%
27 | Cc1ccc(NP(=O)(Oc2ccccc2F)Oc2ccccc2F)nc1 | inactive: 5.49%
28 | CCOP(=O)(Nc1ccccc1)OCC | inactive: -2.71%
29 | Cc1cc(SC(NC(=O)c2ccc(F)cc2)C(Cl)(Cl)Cl)ncn1 (stereo unspecified) | inactive: 4.56%
30 | Cc1c2non([O-])c-2c(C)[n+](=O)[n+]1[O-] | inactive: -7.22%
31 | O=C(NC(Sc1ccncn1)C(Cl)(Cl)Cl)c1ccccc1 (stereo unspecified) | inactive: 9.29%
32 | Oc1ccccc1CNc1ccccn1 | inactive: -1.5%
33 | CC(C)CC(=O)NC(Sc1ccc(Cl)cc1)C(Cl)(Cl)Cl (stereo unspecified) | inactive: -0.71%
34 | Nc1cc(N)c2nonc2c1[N+](=O)[O-] | inactive: 18.9%
35 | Cc1ccc(N/C(=N/P(=O)(N2CCOCC2)N2CCOCC2)N2CCOCC2)cc1 | inactive: 4.53%
36 | CN(C(=O)Cc1ccc(Cl)c(Cl)c1)[C@H]1CCCC[C@H]1N1CCCC1 | inactive: 4.34%
37 | NC(=O)c1cc([N+](=O)[O-])cc([N+](=O)[O-])c1N | inactive: 6.88%
38 | Clc1ccc(Cl)c(NC2=NCC(CBr)S2)c1 (stereo unspecified) | inactive: -5.2%
39 | CN1CCCC(OC(=O)C(c2ccccc2)c2ccccc2)C1 (stereo unspecified) | inactive: -2.4%
40 | Cc1ccc(OP(=O)(Nc2nccs2)Oc2ccc(C)cc2)cc1 | inactive: 10.1%
41 | COc1ccccc1OP(=O)(Nc1ccc(C)cn1)Oc1ccccc1OC | inactive: 0.61%
